Patent publication US20220251158A1, “INTERMEDIATE FILAMENT-DERIVED PEPTIDES AND THEIR USES” (UNIVERSITAT DE LLEIDA, priority 2019, published 2022)

Assays:
[1] = tested on: monocytes purified from the bone marrow of NOD mice; assay: Cytokine release by monocytes purified from NOD bone marrow; type: cell-based, mouse; settings: compared to the other two peptides
Description: (§1) FIG. 12-Concentrations of different cytokines produced by purified cells from NOD bone marrow cultured with peptides. 4×10^5 cells were incubated per well with peptide 72, or DIF-P, or DIF-[…], or DIF-[…], or without stimulus for 24 hours or 48 hours before collecting the supernatant. Cells are (A) monocytes and (B) neutrophils. HL-60, Jurkat and NALM-6 cells were grown and maintained in complete culture medium in a humidified 5% CO2, atmosphere at 37° C. […] Human splenocytes from buffy coats were collected by density gradient using Histopaque 1077 (Histopaque®-1077, 10771 sigma) as described elsewhere (Johnston, L., Harding, S. A. & La Flamme, A. C. Comparing methods for ex vivo characterization of human monocyte phenotypes and in vitro responses. Immunobiology 2015, 220, 1305-1310). Cells from bone marrow were obtained disrupting femur and tibia as explained elsewhere too (Liu, X. & Quan, N. Immune Cell Isolation from Mouse Femur Bone Marrow. Bio-protocol 5, 2015). […] After 1 hour, 24 hours or 48 hours, cells were analysed by flow cytometry and culture supernatants stored at -80° C. until use. Culture supernatants from mice proliferation assays were collected and IL-2, IL-4, IL-6, IFN-γ, IL-10, TNF-α and IL-17 cytokine amounts analysed by flow cytometry using CBA kit (560485, BD). […]

[2] = tested on: neutrophils purified from the bone marrow of NOD mice; assay: Cytokine release by neutrophils purified from NOD bone marrow; type: cell-based, mouse; settings: compared to the other two peptides
Description: as §1

Jurkat-T cells = assay: Mortality of Jurkat cells (Annexin V/PI flow cytometry); type: cell-based, human; settings: 55 μM
Description: FIG. 19—Representative dot plots of apoptosis assay of Jurkat cells after culturing them with different peptides. Annexin V and PI positive cells were analysed after culturing 1×10^5 cells for 1 hour, 24 hours or 48 hours with peptide 72, or DIF-P, or DIF-P3K, or DIF-P8R or without stimulus (n=4).
(§2) HL-60, Jurkat and NALM-6 cells were grown and maintained in complete culture medium in a humidified 5% CO2, atmosphere at 37° C. […] Human splenocytes from buffy coats were collected by density gradient using Histopaque 1077 (Histopaque®-1077, 10771 sigma) as described elsewhere (Johnston, L., Harding, S. A. & La Flamme, A. C. Comparing methods for ex vivo characterization of human monocyte phenotypes and in vitro responses. Immunobiology 2015, 220, 1305-1310). Cells from bone marrow were obtained disrupting femur and tibia as explained elsewhere too (Liu, X. & Quan, N. Immune Cell Isolation from Mouse Femur Bone Marrow. Bio-protocol 5, 2015). Monocytes and neutrophils from bone marrow were purified using the Stemcell kits (19861 and 19762 subsequently) and the kit protocol was followed. Cells were incubated in 96-well tissue culture plates (4×10^5/well for primary cells and 1×10^5 for cells lines) at 37° C. in 5% CO2 in complete culture medium using 55 μM of different Peripherin peptides. For proliferation assays, cells were labelled with CFSE (C34554, life technologies). After 1 hour, 24 hours or 48 hours, cells were analysed by flow cytometry and culture supernatants stored at −80° C. until use.
(§3) For cell death and apoptosis analysis, 400.000 of primary cells or 100.000 of cell line cells were incubated in 96-well plates in 200 μL of complete culture medium for 24 h at 37° C. and 5% CO2 in the absence or presence of 55 μM of different peptides. After 1 hour, 24 hours or 48 hours, apoptosis was measured by CFBlue Annexin V Apoptosis Detection Kit with PI (ANXVKCFB-100T, Immunostep), following kit protocol. […] Cell suspensions were analysed by flow cytometry using FACS CANTO II instrumentation (BD, Biosciences, San Jose, Calif.) and Flowjo (version 8.7) software. […]

HL-60 cells = assay: Mortality of HL-60 cells (Annexin V/PI flow cytometry); type: cell-based, human; settings: 55 μM
Description: FIG. 20—Representative dot plots of apoptosis assay of HL-60 cells after culturing them with different peptides. Annexin V and PI positive cells were analysed after culturing 1×10^5 cells for 1 hour, 24 hours or 48 hours with peptide 72, or DIF-P, or DIF-P3K, or DIF-P8R or without stimulus (n=4).
as §2, §3

SMILES: CC[C@H](C)[C@H](NC(=O)[C@H](CCC(=O)O)NC(=O)[C@@H](NC(=O)[C@H](CC(=O)O)NC(=O)[C@H](CC(C)C)NC(=O)[C@H](C)NC(=O)[C@H](CCSC)NC(=O)[C@H](CCCCN)NC(=O)[C@@H](NC(=O)[C@H](CC(N)=O)NC(=O)[C@H](CC(C)C)NC(=O)[C@@H](N)CC(C)C)C(C)C)[C@@H](C)CC)C(=O)N[C@@H](CCCCN)C(=O)N[C@@H](CCCCN)C(=O)N[C@@H](CCCCN)C(=O)O [DIF-P3K, LLNVKMALDIEIKKK]
- stimulation of inflammatory cytokines IL-6 and IL-4 [1]: remarkably high
- stimulation of inflammatory cytokines IL-6 and IL-4 [2]: still significant

SMILES: CC[C@H](C)[C@H](NC(=O)[C@H](CCC(=O)O)NC(=O)[C@@H](NC(=O)[C@H](CC(=O)O)NC(=O)[C@H](CC(C)C)NC(=O)[C@H](C)NC(=O)[C@H](CCSC)NC(=O)[C@H](CCCCN)NC(=O)[C@@H](NC(=O)[C@H](CC(N)=O)NC(=O)[C@H](CC(C)C)NC(=O)[C@@H](N)CC(C)C)C(C)C)[C@@H](C)CC)C(=O)N[C@@H](CCCNC(=N)N)C(=O)N[C@@H](CCCNC(=N)N)C(=O)N[C@@H](CCCNC(=N)N)C(=O)N[C@@H](CCCNC(=N)N)C(=O)N[C@@H](CCCNC(=N)N)C(=O)N[C@@H](CCCNC(=N)N)C(=O)N[C@@H](CCCNC(=N)N)C(=O)N[C@@H](CCCNC(=N)N)C(=O)O [DIF-P8R]
- mortality percentage (Jurkat-T cells; 1 h): 57%
- mortality percentage (Jurkat-T cells; 24 h): 71%
- mortality percentage (Jurkat-T cells; 48 h): 77%
- mortality percentage (HL-60 cells; 1 h): 85%
- mortality percentage (HL-60 cells; 24 h): 75%
- mortality percentage (HL-60 cells; 48 h): 78%
